From publication PMC4390550 (Journal of the American Chemical Society, 2015) come the findings set out here.

Amino acid sequences for entries named in this document (tags omitted). Residues count along the entry.
UniProt P80147, 29-500: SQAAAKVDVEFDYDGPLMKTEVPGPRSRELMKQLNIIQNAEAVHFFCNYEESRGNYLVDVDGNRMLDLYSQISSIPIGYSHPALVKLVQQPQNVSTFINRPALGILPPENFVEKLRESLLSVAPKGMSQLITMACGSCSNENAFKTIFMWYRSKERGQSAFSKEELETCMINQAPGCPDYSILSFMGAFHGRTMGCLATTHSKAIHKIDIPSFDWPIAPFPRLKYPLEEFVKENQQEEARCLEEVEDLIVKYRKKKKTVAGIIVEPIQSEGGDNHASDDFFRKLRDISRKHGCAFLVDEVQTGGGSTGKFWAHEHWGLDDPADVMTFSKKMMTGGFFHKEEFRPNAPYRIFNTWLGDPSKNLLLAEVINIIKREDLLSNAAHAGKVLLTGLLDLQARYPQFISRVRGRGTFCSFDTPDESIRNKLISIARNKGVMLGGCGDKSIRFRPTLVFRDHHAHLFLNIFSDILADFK

For the assay, the target named is GABA-AT (Sus scrofa, UniProt P80147). In words: Time-dependent inhibition. Type of assay: biochemical, pig. The settings on record: pH 6.5, 25 °C.

In the case of `Cl.N[C@@H]1CS[C@H](C(=O)O)C1` [Compound 17, (2S,4S)-4-Aminotetrahydrothiophene-2-carboxylic acid hydrochloride], the “efficiency as inactivator of GABA-AT relative to vigabatrin (from kinact/KI)” value is listed as “eight times more efficient”.

On to `Cl.N[C@@H]1CS[C@@H](C(=O)O)C1` [Compound 18, (2R,4S)-4-Aminotetrahydrothiophene-2-carboxylic acid hydrochloride], for which the “efficiency as inactivator of GABA-AT relative to vigabatrin (from kinact/KI)” value is on record as “half as efficient”.
